Results as given in PMC7265552 (Scientific Reports, 2020).

Tested on: IL-12 (TYK2/JAK2) induced pSTAT4
Test: Phospho-STAT inhibition in lymphocytes, IL-12, mouse WT
Assay type: cell-based, mouse (C57BL/6)
Details: human vs mouse WT leukocytes

SMILES: C[C@@H]1CCN(C(=O)CC#N)C[C@@H]1N(C)c1ncnc2[nH]ccc12 [Tofacitinib, reference compound]
- difference in IL-12-induced pSTAT4 potency across species: <two-fold difference
